System: VSV pseudotyped with the SARS-CoV-2 Wuhan-Hu-1 S
Details: VeroE6 cells; VSV pseudotyped with Wuhan-Hu-1 S

With `C=C1CC[C@H](O)C/C1=C/C=C1\CCC[C@]2(C)[C@@H]([C@H](C)CCCC(C)(C)O)CC[C@@H]12` [calcifediol] as the compound, how does the “therapeutic window (CC50/EC50)” value read?
Its value is 3.34 ± 1.59.

Which “therapeutic window (CC50/EC50)” value does the source give for `CC(C)c1c(CN(C)C(C)Cc2ccccc2)n(C)n(-c2ccccc2)c1=O` (stereo not drawn) [famprofazone] here?
Its value is 12.95 ± 6.88.

Which “therapeutic window (CC50/EC50)” value does the source give for `CCCCCCCCc1ccc(CCC(N)(CO)CO)cc1` [fingolimod] here?
Its value is 2.64 ± 2.69.
